## Ab-14 light chain CDR variants: yeast mating affinities

Antigen: PDVDLGDISGINAS, a 14-residue peptide of the SARS-CoV-2 spike HR2 region.

The variants keep the heavy chain, the linker and the frameworks of Ab-14 (scFv order VH, the linker GGGGSGGGGSGGGGS, VL).
VH: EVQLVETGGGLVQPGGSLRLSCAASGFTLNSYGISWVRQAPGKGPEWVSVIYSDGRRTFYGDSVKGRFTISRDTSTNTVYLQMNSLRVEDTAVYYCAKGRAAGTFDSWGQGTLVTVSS
VL: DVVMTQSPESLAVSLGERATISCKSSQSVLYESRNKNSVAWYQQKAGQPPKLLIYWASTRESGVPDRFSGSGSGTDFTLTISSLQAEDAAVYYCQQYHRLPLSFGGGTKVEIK

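The parent was found by panning a naive human phage display library on the peptide. Designed CDR sequences, proposed from the first random library and measured here. Their group label is 14L_En_Gibbs (En: ensemble of fine-tuned language models; Gibbs: Gibbs sampling). AlphaSeq pools MATa yeast showing the antibodies with MATalpha yeast showing the peptide. After mating in shaken culture at 30 °C for 16 h, diploids were selected and their barcode pairs sequenced. Scores were corrected for input abundance and mapped to Kd with protein pairs of known affinity run in the same pool. Mating was done six times.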

The parent's light chain CDRs are KSSQSVLYESRNKNSVA, WASTRES, QQYHRLPLS; each variant's own CDRs replace them letter for letter. Affinities are written as log10 Kd with Kd in nM; a lower number is a better binder. Where no diploid with the target was found in that replicate, the entry reads "nd": below detection, most likely a poor binder, though not proof of it. Values of this round are not directly comparable with the first-round values of the same sequences.

CDR-L1	CDR-L2	CDR-L3	replicates, log10 nM	signal with controls
IIAEQNMHVGIGANAIA	NATVRSA	QQYLRLPLM	0.94 / 0.35 / 0.54 / 0.18 / 0.61 / 0.86	1/18 (1.79)
SLDSYVGYDTHNKKNIA	EETRVDR	QQYAHLPLM	1.03 / 0.82 / 0.47 / 0.72 / 0.56 / 0.98	1/18 (2.35)
KVTMYELEMEFNRSAVA	QAEVRAP	QQYWRLPLE	1.18 / 1.12 / 1.09 / 1.18 / 1.28 / 1.13	1/18 (3.28)
FLAMALDQGILIKNNIA	SDNLREN	QQYERLPLI	nd / nd / nd / 0.31 / nd / 1.84	0/18
KLRLHNLMFYQNENSIA	DVSNRAY	QQYYHLPLN	0.87 / 1.18 / 0.72 / 1.16 / 0.98 / 0.97	4/18 (3.25)
KVDMGELPNGFNRSSIA	QAEVRAP	QQYWQLPLE	nd / 1.86 / 1.86 / 0.96 / 1.08 / 1.58	2/18 (2.47)
NLNDGPMYQQIHMDAIA	QEAIRNA	QQYARLPLS	2.53 / 1.12 / 1.66 / 2.62 / 1.48 / 2.51	0/18
KISFWSYPGSLWHNNIA	GGAQRAE	QQYSRLPLN	1.51 / 1.64 / nd / 1.30 / 1.84 / 1.70	0/18
KMEMDFRGNDVNRNSIA	SDEAVTR	QHYARLPLS	nd / nd / nd / nd / nd / nd	2/18 (1.53)
ILNLSPMGHQIHMDAIA	QEAIRNV	QQYARLPLS	1.42 / 1.85 / nd / 1.67 / 1.49 / 1.21	0/18
QLGWNQSGDTLSQGAIA	HAAELVD	QQYFRLPLL	0.73 / 0.74 / 0.73 / 0.78 / 0.69 / 0.90	3/18 (4.25)
RITILSDYYLENRSAIA	ETSLKAH	QQYFMLPLT	1.90 / 1.77 / 0.64 / 1.85 / 1.53 / 1.81	0/18
KLKELFNMWARAQGNVA	DATERCT	QQYSRLPIC	0.57 / 0.41 / 0.37 / 0.57 / -0.22 / 0.67	1/18 (1.63)
KLQWYPLGIRDTGSNVA	EAATKYN	QQYMRLPLM	nd / 0.99 / 1.52 / nd / nd / nd	0/18
QMTESDHGHQAGVGSIA	DATETME	QQYMHLPLS	0.89 / 0.91 / 0.53 / 0.78 / 0.72 / 0.78	1/18 (1.98)
QLSVFELQGTGWAQNIA	QADHRTE	QQFARLPLV	0.67 / 1.00 / 0.52 / 0.31 / 0.80 / 0.62	2/18 (2.22)
MITGSMEQEWSNKNPVA	SATDRAP	QSYFRLPLM	0.80 / 0.73 / 0.03 / 0.45 / 0.72 / 0.69	1/18 (2.85)
TLGNLMGGQNEMDNSIA	GHETRVQ	QQYWHLPLV	0.95 / 1.14 / 0.77 / 0.56 / 0.35 / 0.78	1/18 (2.83)
HLNKQAWDFNQTWNAVA	AHSMRAV	QQYYRLPLT	1.35 / 1.84 / 2.23 / 1.68 / 1.94 / 1.58	1/18 (2.71)
SVRHPFQGENGRKASIA	NATIRDH	QQYFRLPLF	1.09 / 0.60 / 1.00 / 0.98 / 0.92 / 1.08	2/18 (1.80)
MLWQQDEGFNGVKDAIA	NAEEREG	QQYGRLPLS	0.99 / 1.19 / 1.42 / 1.96 / 1.66 / 1.85	1/18 (2.56)
KLDASMYVGTEAKRAIA	QDEMLVH	QQYDRLPLM	1.22 / 1.60 / nd / 1.86 / 0.86 / nd	0/18
TIDDEMPSRGLKWNSIA	GVATVLQ	QQYHRLPLI	nd / nd / nd / 2.49 / 1.91 / 3.01	0/18
MITEGQLGENKNSSNIA	SQNIKTD	QQYQRLPFV	0.86 / 0.83 / 0.84 / 0.92 / 0.82 / 1.08	1/18 (2.81)
SLYEAQQMGGLHTSAIA	DANQQMR	QHYNRLPLA	1.76 / 1.59 / 0.85 / 1.22 / 1.77 / 1.67	0/18
NMTGTKEMQSNNINNIA	EMNERFQ	QQYFQLPLS	1.48 / 1.94 / 1.56 / 1.27 / 1.54 / 1.62	2/18 (3.33)
RISQTIQENVRQYNSVA	NGMTRNA	QHYSRLPLE	1.10 / 1.02 / 0.99 / 1.07 / 1.27 / 1.09	3/18 (2.90)
MLTGAPFVGDRDKQSIA	ANEVRMM	QQYYQLPLC	0.85 / 0.91 / 0.86 / 0.65 / 0.70 / 0.93	5/18 (3.35)
TLEQLVFPMGKDWHSIA	NATTLLA	QQYYYLPLM	1.55 / 2.36 / 1.60 / 2.28 / 1.78 / 1.66	0/18
NITGMVEEIGTTMKNIA	EGEFRCM	QQYSRLPLS	2.31 / 0.91 / 1.42 / 2.00 / 1.06 / nd	0/18
HISANMWMQGSQWDAVA	QGEIANN	QQYARLPLS	0.82 / nd / nd / 2.11 / 0.21 / nd	0/18
NLSWKQIMQNMDSMAVA	QTEQRNA	QQYARLPLS	0.95 / 0.23 / -0.37 / 0.31 / 0.04 / 0.09	0/18
KLAQGIYEPVRKSNNIA	EASHVCD	QQYERLPLE	0.92 / 1.06 / 0.91 / 0.50 / 0.96 / 2.05	0/18
MLDQMDGQMGGNTNNIA	DVNENRI	QQYHRLPLS	0.82 / 0.51 / 0.58 / 0.41 / 0.69 / 0.76	1/18 (2.90)
NMNVGANFGKEQEQAIA	DVEDREA	QQYQRLPLH	1.09 / 0.86 / 1.06 / 1.12 / 1.31 / 1.74	1/18 (1.72)
KIQWYPLEFRGTIQAVA	EAATRYN	QQYMHLPLS	1.64 / 1.27 / 1.70 / 1.30 / 1.64 / nd	2/18 (1.49)
RLSLEHTGYWEMMNSIA	QASTKQF	QQYDRLPLH	nd / 1.57 / 1.26 / 1.07 / 1.90 / nd	0/18
QLDQAYRVGENWKESIA	HGSVRVE	QCYVRLPLS	0.92 / 0.99 / 2.19 / nd / 3.58 / 1.46	0/18
KVKNMMNQMGTQHQNIA	DGAIKAD	QQYQRLPLW	0.19 / 0.25 / 0.18 / 0.17 / 0.05 / 0.30	1/18 (1.97)
HMNHEFYGYWNYEQAIA	HESQRLY	QQYSRLPLS	0.06 / 0.21 / -0.10 / 0.01 / 0.15 / -0.02	0/18
HMRHEFYGYWNYDQAVA	HANQRLN	QQYSRLPFS	nd / 1.41 / 2.59 / 1.28 / 2.06 / nd	0/18
ALVAQNLQNMDKLNSIA	DQSQTQE	QQYFRLPFA	nd / nd / nd / nd / nd / nd	0/18
LGNYEDQDDDRGMNNIA	NGDTKMQ	QQYYRLPLS	0.11 / -0.05 / -0.19 / 0.18 / -0.24 / 0.31	1/18 (2.03)
HLGQEGYNQTYAMDAVA	DQNTALE	QHYSRLPLT	2.04 / 1.67 / nd / nd / 2.08 / 2.52	0/18
KLGNQEQMEGMLTQNVA	AMNTVVD	QEYHRLPLI	0.30 / 0.20 / 0.11 / -0.14 / -0.16 / 0.46	2/18 (2.51)

The 4 strongest on average among those seen in every replicate, once more:

CDR-L1,CDR-L2,CDR-L3,"replicates, log10 nM",signal with controls
LGNYEDQDDDRGMNNIA,NGDTKMQ,QQYYRLPLS,0.11 / -0.05 / -0.19 / 0.18 / -0.24 / 0.31,1/18 (2.03)
HMNHEFYGYWNYEQAIA,HESQRLY,QQYSRLPLS,0.06 / 0.21 / -0.10 / 0.01 / 0.15 / -0.02,0/18
KLGNQEQMEGMLTQNVA,AMNTVVD,QEYHRLPLI,0.30 / 0.20 / 0.11 / -0.14 / -0.16 / 0.46,2/18 (2.51)
KVKNMMNQMGTQHQNIA,DGAIKAD,QQYQRLPLW,0.19 / 0.25 / 0.18 / 0.17 / 0.05 / 0.30,1/18 (1.97)

Background: pairings of all light chain designs with three empty control strains gave a value in 4% of cases (median 2.64, 5th percentile 1.59). Values in that range, when seen in few replicates, are hard to tell from nonspecific mating. Also given: how often the same scFv was detected with the empty control strains, with their mean in brackets. In the paper, a design with two or fewer of six values counts as a poor binder.

Source: Li et al. 2023 (doi:10.1038/s41467-023-39022-2), MIT Lincoln Laboratory and A-Alpha Bio; data file from the FLAb repository.